In ChEMBL document CHEMBL1135302, “Optimization of the 4-aryl group of 4-aryl-pyridine glucagon antagonists: development of an efficient, alternative synthesis” (Bioorg Med Chem Lett, 2002) one finds IC50 data, which are given here for one molecule.

Chains of the proteins cited; added tags and fusions are not shown.
UniProt P47871, whole entry: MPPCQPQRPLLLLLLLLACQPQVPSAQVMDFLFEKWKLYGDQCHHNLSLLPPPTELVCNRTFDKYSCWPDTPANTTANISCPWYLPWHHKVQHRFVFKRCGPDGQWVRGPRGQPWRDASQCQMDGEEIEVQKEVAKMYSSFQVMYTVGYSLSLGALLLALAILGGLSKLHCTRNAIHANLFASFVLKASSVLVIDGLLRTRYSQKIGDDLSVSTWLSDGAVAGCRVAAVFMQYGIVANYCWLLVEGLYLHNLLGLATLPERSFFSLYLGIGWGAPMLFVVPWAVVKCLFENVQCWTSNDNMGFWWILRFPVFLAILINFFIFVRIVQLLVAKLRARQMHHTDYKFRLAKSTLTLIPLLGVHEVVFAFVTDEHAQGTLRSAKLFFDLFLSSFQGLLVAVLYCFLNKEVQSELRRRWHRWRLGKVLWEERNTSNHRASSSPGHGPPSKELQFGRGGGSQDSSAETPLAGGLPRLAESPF

Molecules are shown by their SMILES.

For the test, the target named is Glucagon receptor (Homo sapiens, UniProt P47871). Description: Tested for its ability to inhibit cAMP production in human glucagon receptor expressed CHO cells. It is filed as functional, cell-based.

In turn, `CCCc1c(C(C)C)nc(C(C)C)c([C@@H](C)O)c1-c1ccc(F)cc1` yielded an IC50 of 65 nM.
